{"sequences": {"note": "Chains of the proteins cited; added tags and fusions are not shown. Residues count along the entry.", "UniProt P08709, 61-212": "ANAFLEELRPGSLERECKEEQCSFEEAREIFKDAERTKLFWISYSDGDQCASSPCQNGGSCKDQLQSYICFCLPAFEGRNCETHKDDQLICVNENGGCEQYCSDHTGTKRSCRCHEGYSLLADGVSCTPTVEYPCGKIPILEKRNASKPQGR", "UniProt P08709, 213-466": "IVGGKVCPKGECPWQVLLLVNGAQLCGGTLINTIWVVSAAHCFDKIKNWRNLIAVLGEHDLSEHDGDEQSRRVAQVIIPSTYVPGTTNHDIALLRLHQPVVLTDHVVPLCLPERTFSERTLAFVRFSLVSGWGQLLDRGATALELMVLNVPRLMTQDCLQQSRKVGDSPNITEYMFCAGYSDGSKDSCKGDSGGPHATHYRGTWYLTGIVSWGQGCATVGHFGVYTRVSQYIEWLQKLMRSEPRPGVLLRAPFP"}, "source": "patent US6534629B1", "about": "“Nematode-extracted serine protease inhibitors and anticoagulant proteins” (priority 1994, dated 2003)", "assay_type_in_all_cases": "biochemical", "key": {"[1]": {"biological_target": "T1, human rFVIIa/rTF/PLV complex (Homo sapiens, UniProt P08709)", "T1 construct": "Lyophilized, purified, recombinant human factor VIIa was obtained from BiosPacific, Inc; purchased rFVIIa: BiosPacific, Inc. (Emeryville, Calif.); rTF: made in house (Corvas International, Inc.) in a baculovirus expression system; host or cells: rTF: baculovirus-expression system", "experiment": "fVIIa/TF fIX activation assay (3H-FIX)", "procedure": "This Example measures the ability of NAPs of the present invention to act as an inhibitor of the catalytic complex of fVIIa/TF, which has a primary role in initiation of the coagulation response in the ex vivo prothrombin time assay (Example B). Activation of tritiated Factor IX by the rFVIIa/rTF/PLV complex was assessed by determining the respective intrinsic inhibition constant, Ki*.\nLyophilized, purified, recombinant human factor VIIa was obtained from BiosPacific, Inc. (Emeryville, Calif.), and reconstituted in HBS (10 mM HEPES, pH 7.5, 150 mM sodium chloride) prior to use. Purified human Factor X was obtained from Enzyme Research Laboratories, Inc. (South Bend, Ind.) and Factor Xa (free FXa) was activated and prepared from Factor X as described (Bock, P. E., Craig, P. A., Olson, S. T., and Singh, P. Arch. Biochem. Biophys. 273: 375-388 (1989)). Active site-blocked human Factor Xa (EGR-FXa), which had been irreversibly inactivated with L-Glutamyl-L-glycyl-L-arginyl chloromethylketone, was obtained from Haematologic Technologies, Inc. (Essex Junction, Vt.). Recombinant human tissue factor (rTF) was produced by a baculovirus-expression system, and purified to homogeneity by monoclonal antibody affinity chromatography (Corvas International, Inc., San Diego, Calif.).\nThe purified rTF apoprotein was incorporated into phospholipid vesicles (rTF/PLV), consisting of phosphotidyl choline (75%, w/v) and phosphotidyl serine (25%, w/v) in the presence of detergent, as described by Ruf et al. (Ruf, W., Miles, D. J., Rehemtulla, A., and Edgington, T. S. Methods in Enzymology 222: 209-224 (1993)). The phospholipids were purchased from Avanti Polar Lipids, (Alabaster, Ala.). The buffer used for all assays was HBSA, HBS containing 0.1% (w/v) bovine serum albumin. All reagents were obtained from Sigma Chemical Cb. (St. Louis, Mo.), unless otherwise indicated.\nThe activation of human ^3H-Factor IX (FIX) by the rFVIIa/rTF complex was monitored by measuring the release of the radiolabelled activation peptide. Purified human fIX was obtained from Haematologic Technologies, Inc. (Essex Junction, Vt.), and radioactively labelled by reductive tritiation as described (Van Lenten & Ashwell, 1971, JBC 246, 1889-1894). […] The radiospecific activity was 2.7×10^8 dpm/mg. […]\nAt specific time points (8, 16, 24, 32, and 40 min), 80 μl of the reaction mixture was added to an eppendorf tube that contained an equal volume of 50 mM EDTA in HBS with 0.5% BSA to stop the reaction; this was followed by the addition of 160 μL of 6% (w/v) trichloroacetic acid. […] The radioactivity contained in the resulting supernatant was measured by removing triplicate aliquots that were added to Scintiverse BD (Fisher Scientific, Fairlawn, N.J.), and quantitated by liquid scintillation counting. […]"}, "human factor Xa": {"biological_target": "T2, human factor Xa (Homo sapiens, UniProt P00742)", "T2 construct": "Factor Xa enzyme diluted in HBSA (prepared from purified human factor X obtained from Enzyme Research Laboratories)", "experiment": "Factor Xa amidolytic assay", "settings": "free human FXa 0.5 nM, substrate S2765 250 micromolar, 30 minute incubation", "procedure": "The ability of NAPs of the present invention to act as inhibitors of factor Xa catalytic activity was assessed by determining the NAP-induced inhibition of amidolytic activity catalyzed by the human enzyme, as represented by Ki* values.\nThe buffer used for all assays was HBSA (10 mM HEPES, pH 7.5, 150 mM sodium chloride, 0.1% bovine serum albumin). All reagents were from Sigma Chemical Co. (St. Louis, Mo.), unless otherwise indicated.\nThe assay was conducted by combining in appropriate wells of a Corning microtiter plate, 50 microliters of HBSA, 50 microliters of the test NAP compound diluted (0.025-25 nM) in HBSA (or HBSA alone for uninhibited velocity measurement), and 50 microliters of the Factor Xa enzyme diluted in HBSA (prepared from purified human factor X obtained from Enzyme Research Laboratories (South Bend, Ind.) according to the method described by Bock, P. E. et al., Archives of Biochem. Biophys. 273: 375 (1989). The enzyme was diluted into HBSA prior to the assay in which the final concentration was 0.5 nM). […] The initial velocity of chromogenic substrate hydrolysis was measured by the change in absorbance at 405 nm using a Thermo Max® Kinetic Microplate Reader (Molecular Devices, Palo alto, Calif.) over a 5 minute period in which less than 5% of the added substrate was utilized. […]"}, "[2]": {"biological_target": "T3, human fXa incorporated into a prothrombinase complex (Homo sapiens, UniProt P00742)", "T3 construct": "a preformed complex of human FXa, human Factor Va (FVa), and phospholipid vesicles; FVa: Haematologic Technologies, Inc. (Essex Junction, Vt.)", "experiment": "Prothrombinase inhibition assay", "settings": "activation of prothrombin by prothrombinase complex; FXa 250 fM, prothrombin 250 nM", "procedure": "The ability of NAP of the present invention to act as an inhibitor of the activation of prothrombin by Factor Xa that has been assembled into a physiologic prothrombinase complex was assessed by determining the respective inhibition constant, Ki*.\nProthrombinase activity was measured using a coupled amidolytic assay, where a preformed complex of human FXa, human Factor Va (FVa), and phospholipid vesicles first activates human prothrombin to thrombin. The amidolytic activity of the generated thrombin is measured simultaneously using a chromogenic substrate. Purified human FVa was obtained from Haematologic Technologies, Inc. (Essex Junction, Vt.). Purified human prothrombin was purchased from Celsus Laboratories, Inc. (Cincinnati, Ohio). […]\nThe prothrombinase activity of fXa was measured as an increase in the absorbance at 405 nm over 10 min (velocity); exactly as described in Example A, under steady-state conditions. The absorbance increase was sigmoidal over time, reflecting the coupled reactions of the activation of prothrombin by the FXa-containing prothrombinase complex, and the subsequent hydrolysis of Pefachrome tPA by the generated thrombin. The data from each well of a triplicate were combined and fit by reiterative, linear least squares regression analysis, as a function of absorbance versus time^2, as described [Carson, S. D. Comput. […]"}, "[3]": {"settings": "No FXa Addition, read-out: Ki* (pM) 3H-FIX Activation, No FXa Addition"}}, "note": "Like-named read-outs stand apart in the source and are kept apart here.", "data": [{"substance": "AcaNAP6: NAP of Ancylostoma caninum, SEQ. ID. NO. 6; recombinant, made in Pichia pastoris", "values": [{"measurement": "Ki", "setting": "[1]; +EGR-FXa (300 pM), read-out: Ki* (pM) 3H-FIX Activation, +EGR-FXa", "result": "> 1500", "unit": "pM"}, {"measurement": "Ki", "setting": "[1]; +free FXa (300 pM), read-out: Ki* (pM) 3H-FIX Activation, +free FXa", "result": "> 1500", "unit": "pM"}, {"measurement": "Ki", "setting": "[1]; [3]", "result": "> 1500", "unit": "pM"}]}, {"substance": "AcaNAPc2: NAP of Ancylostoma caninum isolated by phage display, SEQ. ID. NO. 59; fVIIa/TF inhibitor", "values": [{"measurement": "Ki", "setting": "human factor Xa", "result": "> 1000", "unit": "nM"}, {"measurement": "Ki", "setting": "[1]; [3]", "result": "> 1500", "unit": "pM"}, {"measurement": "Ki", "setting": "[2]", "result": "2.39 ± 0.283", "unit": "nM"}]}]}
